Key:
Test in all cases: Kinase profiling in a biochemical assay panel (mobility shift assays and ELISA), %-inhibition at 1 μM; selectivity entropy
[1] = target: panel of more than 300 wild-type and mutant kinases (313 kinase panel) (Homo sapiens, UniProt P07947, T348I)
[2] = target: panel of more than 300 wild-type and mutant kinases (313 kinase panel) (Homo sapiens, UniProt P23443)
[3] = target: panel of more than 300 wild-type and mutant kinases (313 kinase panel) (Homo sapiens, UniProt P42336)
[4] = target: panel of more than 300 wild-type and mutant kinases (313 kinase panel) (Homo sapiens, UniProt Q15349)
[5] = target: panel of more than 300 wild-type and mutant kinases (313 kinase panel) (Homo sapiens, UniProt Q86V86)
[6] = target: panel of more than 300 wild-type and mutant kinases (313 kinase panel) (Homo sapiens, UniProt O15111); settings: 1 µM
[7] = target: panel of more than 300 wild-type and mutant kinases (313 kinase panel) (Homo sapiens, UniProt P16234, T674I); settings: 1 µM
[8] = target: panel of more than 300 wild-type and mutant kinases (313 kinase panel) (Homo sapiens, UniProt P22694); settings: 1 µM
[9] = target: panel of more than 300 wild-type and mutant kinases (313 kinase panel) (Homo sapiens, UniProt P29322); settings: 1 µM
[10] = target: panel of more than 300 wild-type and mutant kinases (313 kinase panel) (Homo sapiens, UniProt P42680); settings: 1 µM
[11] = target: panel of more than 300 wild-type and mutant kinases (313 kinase panel) (Homo sapiens, UniProt P49761); settings: 1 µM
[12] = target: panel of more than 300 wild-type and mutant kinases (313 kinase panel) (Homo sapiens, UniProt P51955); settings: 1 µM
[13] = target: panel of more than 300 wild-type and mutant kinases (313 kinase panel) (Homo sapiens, UniProt P54762); settings: 1 µM
[14] = target: panel of more than 300 wild-type and mutant kinases (313 kinase panel) (Homo sapiens, UniProt Q04759); settings: 1 µM
[15] = target: panel of more than 300 wild-type and mutant kinases (313 kinase panel) (Homo sapiens, UniProt Q08881); settings: 1 µM
[16] = target: panel of more than 300 wild-type and mutant kinases (313 kinase panel) (Homo sapiens, UniProt Q13237); settings: 1 µM
[17] = target: panel of more than 300 wild-type and mutant kinases (313 kinase panel) (Homo sapiens, UniProt Q16644)
[18] = target: panel of more than 300 wild-type and mutant kinases (313 kinase panel) (Homo sapiens, UniProt Q8IW41); settings: 1 µM
[19] = target: panel of more than 300 wild-type and mutant kinases (313 kinase panel) (Homo sapiens, UniProt Q92630); settings: 1 µM
[20] = target: panel of more than 300 wild-type and mutant kinases (313 kinase panel) (Homo sapiens, UniProt Q96PN8); settings: 1 µM
[21] = target: panel of more than 300 wild-type and mutant kinases (313 kinase panel) (Homo sapiens, UniProt Q99683); settings: 1 µM
[22] = target: panel of more than 300 wild-type and mutant kinases (313 kinase panel) (Homo sapiens, UniProt Q9NRM7); settings: 1 µM
[23] = target: panel of more than 300 wild-type and mutant kinases (313 kinase panel) (Homo sapiens, UniProt Q9P0L2); settings: 1 µM

SMILES | %-inhibition of IKKα [6] [%] | %-inhibition of PDGFRα(T674I) [7] [%] | %-inhibition of PKACβ [8] [%] | %-inhibition of EPHA8 [9] [%] | %-inhibition of TEC [10] [%] | %-inhibition of CLK3 [11] [%] | %-inhibition of NEK2 [12] [%] | %-inhibition of EPHB1 [13] [%] | %-inhibition of PKCθ [14] [%] | %-inhibition of ITK [15] [%] | %-inhibition, CGK2 [16] [%] | %-inhibition of MAPKAPK5 [18] [%] | %-inhibition of DYRK2 [19] [%] | %-inhibition of TSSK3 [20] [%] | %-inhibition of MAP3K5 [21] [%] | %-inhibition of LATS2 [22] [%] | %-inhibition of MARK1 [23] [%] | further results
CNC(=O)c1ccccc1Sc1ccc2c(/C=C/c3ccccn3)n[nH]c2c1 [axitinib] | – | – | – | – | – | – | – | – | – | – | – | – | – | – | – | – | – | %-inhibition of YES(T348I) ([1]; kinase YES(T348I), compound at 1 μM): 91%; %-inhibition of p70S6K ([2]; kinase p70S6K, 1 μM): 12%; %-inhibition of PIK3CA/PIK3R1 ([3]; kinase PIK3CA/PIK3R1, 1 μM): 17%; %-inhibition of RSK3 ([4]; kinase RSK3, 1 μM): 56%; %-inhibition of PIM3 ([5]; kinase PIM3, 1 μM): -7.44%
COc1cc2ncnc(Nc3ccc(F)c(Cl)c3)c2cc1OCCCN1CCOCC1 [gefitinib] | -9 | 79 | -2.6 | 54 | 27 | 0.938 | 3 | 41 | 5.66 | 1.42 | 9.48 | 3 | 29 | 2 | 3.27 | -4 | 14 | %-inhibition of MAPKAPK3 ([17]; kinase MAPKAPK3, compound at 1 μM): -0.532%
C[C@@H]1CCN(C(=O)CC#N)C[C@@H]1N(C)c1ncnc2[nH]ccc12 [tofacitinib] | -3.61 | 25 | 8 | -5 | -2.48 | -12 | -2.43 | 0.465 | -1.47 | -4 | 4.67 | -7 | -8.56 | -3 | 3.37 | -2 | 41 | %-inhibition of YES(T348I) ([1]; 1 µM): 11%; %-inhibition of p70S6K ([2]; 1 µM): 13%; %-inhibition of PIK3CA/PIK3R1 ([3]; 1 µM): 34%; %-inhibition of RSK3 ([4]; 1 µM): 9%; %-inhibition of MAPKAPK3 ([17]; 1 µM): -7.59%; %-inhibition of PIM3 ([5]; 1 µM): -3.62%

From paper PMC3961306, “Comparison of the Cancer Gene Targeting and Biochemical Selectivities of All Targeted Kinase Inhibitors Approved for Clinical Use” (PLoS ONE, 2014)
